Earlier results, collected in patent US20260166128A1, “HUMAN AMYLIN ANALOG, AND DERIVATIVE THEREOF AND USE THEREOF” (priority 2022, published 2026).

Details: background statement; cited from earlier work

Compound: CC[C@H](C)[C@H](NC(=O)[C@@H]1CCCN1C(=O)CNC(=O)[C@H](Cc1ccccc1)NC(=O)[C@H](CC(N)=O)NC(=O)[C@H](CC(N)=O)NC(=O)[C@H](CO)NC(=O)[C@H](CO)NC(=O)[C@H](Cc1c[nH]cn1)NC(=O)[C@@H](NC(=O)[C@H](CC(C)C)NC(=O)[C@H](Cc1ccccc1)NC(=O)[C@H](CC(N)=O)NC(=O)[C@H](C)NC(=O)[C@H](CC(C)C)NC(=O)[C@H](CCCNC(=N)N)NC(=O)[C@H](CCC(N)=O)NC(=O)[C@@H](NC(=O)[C@H](C)NC(=O)[C@@H]1CSSC[C@H](NC(=O)[C@@H](N)CCCCN)C(=O)N[C@@H](CC(N)=O)C(=O)N[C@@H]([C@@H](C)O)C(=O)N[C@@H](C)C(=O)N[C@@H]([C@@H](C)O)C(=O)N1)[C@@H](C)O)C(C)C)C(=O)N[C@@H](CC(C)C)C(=O)N1CCC[C@H]1C(=O)N1CCC[C@H]1C(=O)N[C@H](C(=O)N[C@@H](CC(N)=O)C(=O)N[C@H](C(=O)NCC(=O)N[C@@H](CO)C(=O)N[C@@H](CC(N)=O)C(=O)N[C@H](C(=O)N[C@@H](Cc1ccc(O)cc1)C(N)=O)[C@@H](C)O)C(C)C)[C@@H](C)O [Pramlintide]
- half-life: about 48 minutes
